# Measured affinities in a library of Ab-14 light chain variants

Values reported by Li et al. 2023, doi:10.1038/s41467-023-39022-2 (FLAb copy).

Binding partner: SARS-CoV-2 spike HR2 peptide, sequence PDVDLGDISGINAS.

Parent: Ab-14, a human scFv built as VH, three GGGGS repeats, VL. Only the CDRs of the light chain vary.
VH: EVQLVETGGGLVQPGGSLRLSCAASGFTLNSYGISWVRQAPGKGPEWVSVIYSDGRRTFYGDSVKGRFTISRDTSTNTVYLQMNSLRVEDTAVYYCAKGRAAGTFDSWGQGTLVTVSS
VL: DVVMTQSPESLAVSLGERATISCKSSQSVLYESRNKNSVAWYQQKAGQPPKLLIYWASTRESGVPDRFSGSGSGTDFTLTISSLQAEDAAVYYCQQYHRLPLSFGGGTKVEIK

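This is the validation round: designs drawn from the data on random variants, tested in the same kind of assay. Their group label is 14L_GP_Gibbs (GP: Gaussian process model; Gibbs: Gibbs sampling; a sequence that several methods proposed may carry one label only). The assay is AlphaSeq: two haploid yeast populations carry antibody and antigen on their surface. The frequency of each diploid, read from paired DNA barcodes, reflects how well the two displayed proteins bind. Scores were corrected for input abundance and mapped to Kd with protein pairs of known affinity run in the same pool. The assay was run in six technical replicates.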

Sequences are complete VL domains.
Affinities are written as log10 Kd with Kd in nM; a lower number is a better binder.
Averages over replicates are reported, and they cover detected replicates only.
An entry "ND" has no value in the source: the pair was not observed among the diploids in that replicate. This suggests poor binding but is not conclusive.
The range of this assay differs from that of the first round, and the authors advise against merging the two.
Nonspecific signal, from three strains lacking the peptide, appeared in 4% of pairings of all light chain designs, centred on 2.64 (5% of these signals below 1.59); values are not corrected for it. For each scFv, signals with the empty controls are counted beside the result, with their mean in brackets.
The authors averaged sequences with at least three values out of six and counted those with two or fewer as poor binders.

VL,log10 Kd (nM) by replicate,mean log10 Kd (nM),control signals
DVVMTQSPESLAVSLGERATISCKLSQVYGYESTNSNSVAWYQQKAGQPPKLLIYDASTREDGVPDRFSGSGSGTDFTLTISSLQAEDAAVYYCQQYHRLPLSFGGGTKVEIK,-0.10 -0.05 -0.34 -0.42 -0.25 -0.05,-0.20,1 of 18 (2.56)
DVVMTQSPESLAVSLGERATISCKLSQEMEYESRNPNSVAWYQQKAGQPPKLLIYQASERESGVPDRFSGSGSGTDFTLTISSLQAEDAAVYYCQQYHRLPLSFGGGTKVEIK,-0.84 -0.67 -0.91 -1.23 -0.98 -0.68,-0.89,1 of 18 (3.53)
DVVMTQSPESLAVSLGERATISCKQQQSEPGLSRNMNSVAWYQQKAGQPPKLLIYHASTRESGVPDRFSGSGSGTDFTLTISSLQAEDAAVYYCQQYHRLPLSFGGGTKVEIK,0.37 0.42 0.30 0.15 0.16 0.52,0.32,2 of 18 (2.16)
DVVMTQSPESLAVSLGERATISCKVDQSVLQQSRNSNSVAWYQQKAGQPPKLLIYEASQREEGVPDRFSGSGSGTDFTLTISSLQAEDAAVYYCQQYHRLPLSFGGGTKVEIK,-0.09 -0.16 -0.36 -0.10 -0.24 -0.14,-0.18,1 of 18 (4.27)
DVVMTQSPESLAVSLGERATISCKVSGSELEESRNKNSVAWYQQKAGQPPKLLIYWASVREEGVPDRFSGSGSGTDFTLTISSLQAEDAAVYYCQQYHRLPLSFGGGTKVEIK,0.48 0.42 0.49 0.17 0.67 0.48,0.45,1 of 18 (3.02)
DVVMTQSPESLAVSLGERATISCKQSQSEGGESRNMNNVAWYQQKAGQPPKLLIYHASKRESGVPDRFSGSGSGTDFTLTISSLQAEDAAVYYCQQYHRLPLSFGGGTKVEIK,0.34 0.12 -0.07 -0.02 -0.14 0.14,0.06,0 of 18
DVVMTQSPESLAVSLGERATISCKLSFMVMEESRNKNSVAWYQQKAGQPPKLLIYSASLREWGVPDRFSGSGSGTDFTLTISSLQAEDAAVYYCQQYHRLPLSFGGGTKVEIK,ND 2.24 ND ND ND ND,2.24,0 of 18
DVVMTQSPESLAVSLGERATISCKYSQSQLYESRNVNAVAWYQQKAGQPPKLLIYNASQRMSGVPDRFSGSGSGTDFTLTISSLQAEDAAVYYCQQYHRLPLSFGGGTKVEIK,0.43 0.16 0.14 -0.01 0.21 0.12,0.17,3 of 18 (3.03)
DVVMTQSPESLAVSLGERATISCKLLQSVLLESRNDNSVAWYQQKAGQPPKLLIYNASTRELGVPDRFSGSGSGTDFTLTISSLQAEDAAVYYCAQYHRLPLSFGGGTKVEIK,0.98 1.15 0.63 0.61 1.10 1.14,0.93,0 of 18
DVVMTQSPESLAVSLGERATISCKLEQSAWLESRNKNAVAWYQQKAGQPPKLLIYSASQRELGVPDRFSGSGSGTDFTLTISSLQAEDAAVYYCQQYHRLPLSFGGGTKVEIK,-0.41 -0.36 -0.51 -0.72 -0.50 -0.15,-0.44,0 of 18
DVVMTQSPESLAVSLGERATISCKFSQEVMMGDRNKNSVAWYQQKAGQPPKLLIYKASQRLSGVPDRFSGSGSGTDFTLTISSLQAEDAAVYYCQQYHRLPLSFGGGTKVEIK,1.08 1.06 0.93 1.06 0.84 0.90,0.98,2 of 18 (2.56)
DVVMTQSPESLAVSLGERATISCKLSQSWGGEWRNKNSVAWYQQKAGQPPKLLIYHASTREQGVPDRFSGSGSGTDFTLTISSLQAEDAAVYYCQDYHRLPLSFGGGTKVEIK,0.66 0.19 0.31 0.42 0.07 0.73,0.40,0 of 18
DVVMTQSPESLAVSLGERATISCKIDQWKLGESVNKNSVAWYQQKAGQPPKLLIYNASTRMDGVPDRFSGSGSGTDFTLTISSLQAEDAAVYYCQQYHRLPLSFGGGTKVEIK,-0.09 -0.25 -0.38 -0.44 -0.39 -0.05,-0.27,1 of 18 (1.98)
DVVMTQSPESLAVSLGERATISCKLEQGDLMESRNKNSVAWYQQKAGQPPKLLIYHASTRESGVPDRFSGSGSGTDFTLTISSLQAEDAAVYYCQQYHRLPLSFGGGTKVEIK,-0.25 -0.31 -0.36 -0.12 0.00 -0.17,-0.20,0 of 18
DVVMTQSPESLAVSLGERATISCKFEQLDMYEQRNKNSVAWYQQKAGQPPKLLIYNASQREDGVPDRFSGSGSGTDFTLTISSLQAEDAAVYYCQQYHRLPLSFGGGTKVEIK,-0.24 -0.32 -0.06 -0.39 -0.39 -0.38,-0.30,2 of 18 (3.01)
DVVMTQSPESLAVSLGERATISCKLHQSVLYESRHKNSVAWYQQKAGQPPKLLIYNASQRESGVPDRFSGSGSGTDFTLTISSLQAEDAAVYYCQQYHRLPLSFGGGTKVEIK,0.13 0.27 -0.06 -0.02 0.09 0.27,0.11,2 of 18 (2.59)
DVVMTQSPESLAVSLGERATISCKSSFVYGYESTNSNSVAWYQQKAGQPPKLLIYDASTREDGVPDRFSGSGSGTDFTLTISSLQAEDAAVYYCQQYHRLPLSFGGGTKVEIK,0.55 0.33 0.53 0.12 0.01 0.23,0.29,1 of 18 (2.85)
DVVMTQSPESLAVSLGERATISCKVSQKDPMGSRNKNSVAWYQQKAGQPPKLLIYHASLREDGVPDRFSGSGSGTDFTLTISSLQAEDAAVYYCQQYHRLPLSFGGGTKVEIK,0.60 0.51 0.24 0.43 0.29 0.43,0.42,1 of 18 (2.80)
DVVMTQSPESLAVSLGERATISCALSQSELYESRNWNSVAWYQQKAGQPPKLLIYNASTREDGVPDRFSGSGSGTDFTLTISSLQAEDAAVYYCQQYHRLPLSFGGGTKVEIK,0.53 0.04 0.32 0.16 0.22 0.48,0.29,1 of 18 (2.43)
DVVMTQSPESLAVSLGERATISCKLSYSVGGESRNKNSVAWYQQKAGQPPKLLIYDAGTRESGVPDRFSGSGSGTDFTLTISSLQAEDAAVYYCQQYHRLPLSFGGGTKVEIK,0.30 0.15 0.33 0.21 0.04 0.02,0.18,1 of 18 (1.72)

2 of these entries, quoted again:

VL	log10 Kd (nM) by replicate	mean log10 Kd (nM)	control signals
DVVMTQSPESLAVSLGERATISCALSQSELYESRNWNSVAWYQQKAGQPPKLLIYNASTREDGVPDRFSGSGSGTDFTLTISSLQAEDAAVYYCQQYHRLPLSFGGGTKVEIK	0.53 0.04 0.32 0.16 0.22 0.48	0.29	1 of 18 (2.43)
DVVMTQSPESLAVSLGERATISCKVSQKDPMGSRNKNSVAWYQQKAGQPPKLLIYHASLREDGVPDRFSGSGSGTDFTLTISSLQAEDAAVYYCQQYHRLPLSFGGGTKVEIK	0.60 0.51 0.24 0.43 0.29 0.43	0.42	1 of 18 (2.80)